{
  "source": "paper PMC8713996",
  "about": "“An anti-tuberculosis compound screen using a zebrafish infection model identifies an aspartyl-tRNA synthetase inhibitor” (Disease Models & Mechanisms, 2021)",
  "system": "E. coli GK1161434",
  "conditions": "zebrafish, in vivo",
  "data": [
    {"smiles": "CO/N=C(\\C(=O)N[C@@H]1C(=O)N2C(C(=O)O)=C(CSc3nc(=O)c(=O)[nH]n3C)CS[C@H]12)c1csc(N)n1", "note": "[ceftriaxone]", "values": [
      {"measurement": "Survival of E. coli-infected embryos", "value": "did not increase the survival"}
    ]}
  ]
}
